Experimental data as given in paper PMC8273886.
Some compounds may have been tested in ways that are not shown here.

Amino acid sequences for entries named in this document (tags omitted).
UniProt P33534, whole entry: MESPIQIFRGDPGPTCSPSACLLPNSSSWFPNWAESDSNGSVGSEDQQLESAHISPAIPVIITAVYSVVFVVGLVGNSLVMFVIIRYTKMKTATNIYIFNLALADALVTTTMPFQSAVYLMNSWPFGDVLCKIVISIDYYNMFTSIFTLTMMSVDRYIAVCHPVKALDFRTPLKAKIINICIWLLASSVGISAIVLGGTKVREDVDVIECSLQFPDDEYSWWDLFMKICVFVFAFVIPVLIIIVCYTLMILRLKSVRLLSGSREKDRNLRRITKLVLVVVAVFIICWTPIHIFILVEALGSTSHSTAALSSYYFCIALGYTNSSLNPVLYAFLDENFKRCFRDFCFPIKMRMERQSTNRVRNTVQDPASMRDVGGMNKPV
UniProt P42866, whole entry: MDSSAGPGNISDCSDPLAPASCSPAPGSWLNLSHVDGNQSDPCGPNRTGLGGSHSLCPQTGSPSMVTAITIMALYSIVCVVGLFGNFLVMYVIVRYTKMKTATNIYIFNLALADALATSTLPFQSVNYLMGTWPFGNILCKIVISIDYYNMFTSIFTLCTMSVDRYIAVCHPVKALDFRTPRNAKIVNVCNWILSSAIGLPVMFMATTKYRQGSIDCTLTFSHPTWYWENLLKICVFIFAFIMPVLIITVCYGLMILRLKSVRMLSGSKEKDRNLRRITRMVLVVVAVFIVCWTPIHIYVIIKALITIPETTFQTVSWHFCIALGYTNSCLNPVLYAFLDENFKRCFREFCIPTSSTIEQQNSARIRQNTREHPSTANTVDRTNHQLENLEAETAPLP

Columns and labels:
[1] = target: mouse KOR (Mus musculus, UniProt P33534); experiment: Saturation binding assay with [3H]-diprenorphine; details: read-out: equilibrium dissociation constant Kd; HEK293 cells stably expressing mouse KOR, n = 2
[2] = target: mouse μ-opioid receptor (MOR) (Mus musculus, UniProt P42866); details: taken from the literature ref 19, 76; cited from earlier work
[3] = target: mouse δ-opioid receptor (DOR) (Mus musculus, UniProt P32300); details: taken from the literature ref 19, 76; cited from earlier work

In the case of [^3H]-diprenorphine, the Kd [1] is listed as 0.87 nM, the Kd [2] is listed as 0.81 nM and the Kd [3] is listed as 1.7 nM.
